Results published in US4207308A, “Process for purifying iodinated bile acid conjugates” (priority 1977, dated 1980).

Experiments:
[1] = rabbit, in vivo, iv
[2] = rat, in vivo
[3] = mouse, in vivo

blood t1/2 [1]: about 3.0 minutes
percent of the dose in Duodenum ([2]; 60 min): 2.9%
percent of the dose in Ileum ([2]; 60 min): 82.6%
percent of the dose in Jejunum ([2]; 60 min): 9.0%
percent of the dose in Liver ([2]; 60 min): 2.1%
percent of the dose in Other organs ([2]; 60 min): 2.06%
percent of the dose in Spleen ([2]; 60 min): 0.04%
percent of the dose in Stomach ([2]; 60 min): 1.3%
radioactivity excreted by the liver and found in the jejunum and ileum ([2]; iv, 1 h): 80-90%
Substance: Cholylglycyl-^125 I-histamine [cholylglycyl-125I-histamine]
hepatic scintigram (in words) [3]: The liver is prominently displayed with some radioactivity appearing in the small intestine
